Tests used:
Format in all cases: cell-based, human
ΔCSNAP HAP1 cells = experiment: Confocal microscopy of cell morphology (cell and nuclear area); settings: exogenous expression in ΔCSNAP cells (FIGS. 1A, 1B)
Method: Confocal imaging of WT, ΔCSNAP and ΔCSNAP cells expressing CSNAP-Cerulean was performed at 60× magnification as previously described (Rozen et al., 2015). Cell area was measured by Olympus Fluoview software. The area of at least 27 cells and nuclei were measured, and plotted as boxes extending from the third (Q3) to the first quartiles (Q1). Whiskers at the top and bottom represent measurements above the Q3 or below the Q1, respectively.

HAP1 cells [1] = experiment: Cell cycle analysis by flow cytometry (double thymidine block or asynchronous BrdU/propidium iodide); settings: asynchronous ΔCSNAP cells, exogenous expression (FIG. 1D)
Method: Cells were synchronized to G1/S phase using double thymidine block as described in (Füzesi-Levi et al., 2014). UV treated cells were exposed to 5 J/m^2 dose at release, and fixed with ethanol at different time points. Cell cycle phases were assessed by flow cytometry (LSRII, BD Biosciences) following propidium iodide staining. Asynchronous cells were analyzed using propidium iodide and BrdU double staining. 10^5 cells were denatured after fixation using 2N HCl, 0.5% Triton X-100 in PBS for 30 minutes, neutralized in 0.1M Na2B4O7 pH8.5 and incubated with 5 μl of anti-BrdU-FITC (eBioscience 11-5071-41) 1% BSA, 0.5% Triton X-100 in PBS for 1 hour. Cells were washed in 1% BSA in PBS and resuspended in PBS containing 50 μg/ml propidium iodide and 50 μg/ml RNAse A, and analyzed in FACSAria Fusion flow cytometer (BD Biosciences).

HAP1 cells [2] = experiment: Resazurin proliferation assay after UV-C induced DNA damage; settings: exogenous expression in ΔCSNAP cells, 20 J/m^2 UV-C (FIG. 2A)
Method: WT, ΔCSNAP, ΔCSNAP-Cerulean and ΔCSNAP-ΔC-Cerulean expressing cells were trypsinized, counted, and 5000 cells/well in 12 well plate were seeded in 4 replicates. Cells in one plate were seeded directly to 30 μg/mlresazurin containing growth medium and fluourescence intensity was measured (540/600 nm) after 2 hours, for initial proliferation value. The other plates were either UV-exposed at 20 J/m^2 24 hours after seeding or left untreated. Two or 4 hours post-UV the growth medium was changed to 30 μg/ml resazurin containing medium and incubated for 2 hours, and fluorescence was measured. Proliferation was calculated at each time point normalizing to the initial proliferation value.

CSNAP-cerulean: full length CSNAP protein tagged with cerulean, exogenously expressed in ΔCSNAP cells (MKPAVDEMFPEGAGPYVDLDEAGGSTGLLMDLAANEKAVHADFFNDFEDLFDDDDIQ; left off: large carriers)
rescue of enlarged and flattened cell morphology of ΔCSNAP cells (ΔCSNAP HAP1 cells): can be rescued
prevention of larger S and G2 phase population of ΔCSNAP cells (HAP1 cells [1]): can be prevented
reduced cellular proliferation (arrest) after UV-C irradiation (HAP1 cells [2]): rescue was achieved
